AlphaSeq binding of Ab-14 light chain variants to a spike HR2 peptide

Source: Li et al. 2023 (doi:10.1038/s41467-023-39022-2), MIT Lincoln Laboratory and A-Alpha Bio; data file from the FLAb repository.

All variants were tested on one target, the spike HR2 peptide PDVDLGDISGINAS (SARS-CoV-2).

Parent: Ab-14, a human scFv built as VH, the linker GGGGSGGGGSGGGGS, VL. Only the CDRs of the light chain vary.
VH: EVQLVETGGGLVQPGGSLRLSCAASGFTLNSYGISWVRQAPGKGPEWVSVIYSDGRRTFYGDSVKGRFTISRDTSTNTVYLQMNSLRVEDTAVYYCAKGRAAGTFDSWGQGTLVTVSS
VL: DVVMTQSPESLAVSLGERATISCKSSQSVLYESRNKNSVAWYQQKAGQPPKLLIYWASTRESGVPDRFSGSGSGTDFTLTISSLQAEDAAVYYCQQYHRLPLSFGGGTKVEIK

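The parent was found by panning a naive human phage display library on the peptide. This is the validation round: designs drawn from the data on random variants, tested in the same kind of assay. Their group label is 14L_En_Gibbs (En: ensemble of fine-tuned language models; Gibbs: Gibbs sampling). Affinity was read by AlphaSeq, a pooled yeast mating assay with surface-displayed partners. Binding brings cells together so that they mate, and sequencing counts the barcode pairs among the diploids. Scores were corrected for input abundance and mapped to Kd with protein pairs of known affinity run in the same pool. The assay was run in six technical replicates.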

Each variant is given by its three light chain CDRs, as the data file delimits them; those of the parent are KSSQSVLYESRNKNSVA, WASTRES, QQYHRLPLS.
Values are log10 of the apparent Kd in nM; lower means stronger binding.
"nd" marks a missing value. The strain was present, yet no cells mated with the target were sequenced in that replicate, which points to weak or no binding.
Empty control strains, which show no peptide, gave a signal in 4% of pairings with all light chain designs; the median was 2.64 and 95% of these signals were weaker than 1.59. No background was subtracted. Also given: how often the same scFv was detected with the empty control strains, with their mean in brackets.

CDR-L1	CDR-L2	CDR-L3	replicates, log10 nM	control signals
KLSNWQFDSYGNKESVA	ENEAVSN	QQYSLLPLS	nd nd nd nd 2.75 3.22	3 of 18 (1.67)
ILMQPQKELGAAKDNIA	DGSIRLG	QQYHRLPLV	0.47 0.59 0.80 0.56 0.54 0.64	1 of 18 (2.92)
HIFPQENVYGKNNNNVA	DGSTQAW	QQYHRLPLS	0.01 0.01 0.05 -0.19 -0.18 -0.10	2 of 18 (3.52)
TVKALLEMYAQDKHSVA	EAVERAS	QQYHRLPLG	0.87 0.63 0.65 0.36 0.81 0.61	2 of 18 (2.46)
TITGEQNMSTQGNWSIA	QAEQKVH	QQYDRLPLA	2.25 1.87 1.75 2.34 2.04 nd	0 of 18
DMTVQFNGASKIQNSVA	HGVEKCD	QQYSRLPLA	0.05 -0.21 -0.01 -0.01 0.00 -0.13	0 of 18
QFDTNLHYMGANKNSVA	EMTERTT	QQYHRLPIE	1.36 1.20 1.29 1.41 1.09 0.97	1 of 18 (4.42)
HINTASVTVDDHYNAVA	EQRLTSI	QQYFRLPLS	nd 2.62 1.46 nd 1.56 2.35	0 of 18
KLWIDMYNGRNKANAVA	EGNILAN	QQYARLPFL	0.37 0.38 0.32 0.51 0.26 0.41	1 of 18 (1.69)
KITDDELTEGNDRNNIA	HNNVAED	QQYQQLPLV	1.59 0.88 1.67 1.58 2.18 1.25	0 of 18
HVKEDLNMGMKFQSSVA	SGAHREE	QQYYRLPLG	0.30 -0.03 -0.13 -0.35 -0.04 0.00	2 of 18 (1.53)
KLNQDPVLKTNINNNVA	EHTEVFQ	QQYAHLPLQ	nd nd nd nd nd nd	1 of 18 (1.90)
KLDMNELGQSQNSSSVA	GSANKCQ	QQYFRLPLS	0.79 0.61 0.49 0.49 0.88 0.75	0 of 18
NIVGRVEDKQTTTANIA	DAELRAG	QQYSRLPLS	0.68 0.77 0.39 0.49 0.34 0.82	0 of 18
NISTQIPEFKMWDNNIA	GATLRPT	QDYARLPLS	0.52 0.83 0.98 0.60 0.55 0.76	0 of 18
MLWQQMEGFNLVKDAIA	NAKERTG	QQYGRLPLS	nd nd nd nd 1.37 3.17	1 of 18 (2.36)
VLAMESYGKSRHESNIA	GANMLAQ	QQYARLPFQ	0.26 0.23 -0.14 -0.01 -0.15 -0.02	2 of 18 (2.11)
KLRLHNLDFYEQENSIA	GVSNRAH	QQYYRLPLN	1.56 1.63 1.48 1.25 1.42 1.81	2 of 18 (2.56)
HVSSMLMADGGIINSVA	GNKLLER	QQYMRLPLS	0.53 0.85 0.39 0.63 -0.18 0.41	0 of 18
NITQQGDAMGDQRNNVA	NVETLQH	QQYAHLPLL	0.61 0.50 0.47 0.11 0.49 0.70	2 of 18 (3.09)
SMQSDQIGGNQQTNSIA	GESVADM	QHYERLPLS	2.68 2.22 nd 2.70 1.83 nd	1 of 18 (2.89)
KLRHHNLDFYEVENNIA	GESMRAV	QQYYRLPLN	1.16 0.50 1.10 1.16 1.29 1.11	0 of 18
NFSEQQKTDREQQYSIA	GTDIREK	QQYGRLPLT	0.81 0.72 0.49 1.01 0.54 1.15	0 of 18
NFSYALFAEDAKKKSIA	ENTVTEY	QQYAKLPLT	1.19 1.15 0.65 0.39 0.67 1.08	0 of 18
KVQYQLAPSEAHTNNVA	DASVVCA	QQYQRLPLG	0.57 0.82 0.60 0.82 0.63 0.70	0 of 18
KVSQGIFDGKRNSHSIA	EVTELCT	QQYSRLPLE	0.35 0.08 0.27 0.04 0.24 0.20	0 of 18
RVQINSGHSDMHWKSIA	SASLRAS	QQYARLPLE	1.74 1.36 1.41 1.61 1.48 1.56	1 of 18 (3.58)
VLPDHELMLESQIHSIA	NEDKRME	QQYSRLPLM	0.63 0.30 0.69 1.65 0.68 0.72	0 of 18
KIQWYPLGIRGTGSAVA	EAATRYN	QQYMRLPLM	1.67 1.22 1.19 1.14 0.62 1.66	0 of 18
KLYQVGLGSQKVDRNIA	ETSTRCT	QSYQRLPLS	0.59 1.10 0.60 1.14 1.26 0.95	1 of 18 (3.00)
HIDWLNRGETLKKDDIA	NANHREQ	QQYFHLPLS	0.57 0.49 0.32 0.03 0.38 0.67	1 of 18 (3.69)
YVSGQLAEGWNQQEAIA	HVSYKED	QQYYKLPLS	nd 1.27 nd 3.09 nd nd	0 of 18
RMSVFMLTDENVWYSIA	NSAAVRT	QQYQRLPLS	nd nd nd nd nd nd	0 of 18
MLQIIPNGYMKMRSNVA	DGSLVRM	QQYARLPLM	nd nd nd nd nd nd	0 of 18
NITGMVEEIGTTTKNIA	EGEFRCM	QQYSRLPLS	1.14 1.20 1.03 0.87 0.99 1.40	2 of 18 (2.55)
MISMEEAPAGQQESSIA	HGGTKAE	QQYNRLPLA	0.32 0.74 0.34 0.45 0.59 0.40	2 of 18 (2.89)
SMSNLGMVPSVWKNSIA	DAEIVEE	QQYSRLPLT	nd 1.65 2.02 2.11 1.38 2.97	1 of 18 (2.81)
MLTWDDDHETGRQNSIA	HAHERNT	QQYHQLPLI	0.44 0.87 0.16 -0.01 0.73 0.59	1 of 18 (1.97)
VSDAFNFSDGQKWNNVA	QTSVRLQ	QDYQRLPLM	1.96 2.00 nd 1.72 2.60 2.04	0 of 18
KITQILFPYGNSWHSVA	NANTLLA	QQYYMLPLM	nd 1.92 nd nd nd nd	1 of 18 (1.34)
MITGSMENQESNQNPVA	SATCKAP	QQYFRLPLM	1.14 1.34 0.89 0.96 1.10 1.09	1 of 18 (3.34)
KLRVHNLMFYQNENSIA	GVSNRAY	QQYYHLPLN	0.78 0.45 0.88 0.69 0.77 0.99	0 of 18
ALSHPSDSWQEHQNSIA	DDNLSLT	QQYHQLPLS	1.45 1.49 2.26 1.70 1.44 2.16	0 of 18
NLQLQPREGAQAQNSIA	DVSEADM	QHYARLPLT	nd nd nd nd nd nd	0 of 18
HFSVETMEFMGQNKNIA	EVTTTML	QQYARLPFI	nd 1.97 0.87 1.42 0.89 2.00	0 of 18
NLSGHPYNNSQYKNSIA	EDNNIRL	QQYHRLPFT	1.32 nd 0.58 nd nd nd	0 of 18
NVRLNEGEIAMHMYAIA	GVDLRAD	QQYSRLPLH	nd 0.78 nd 0.24 -0.01 2.07	0 of 18
FMRMECYGYQNYGNSIA	HANIRHN	QQYSRLPFS	2.22 2.17 1.94 1.99 1.78 2.47	0 of 18
MLSQTVDYNYTAGNSVA	EVTERCN	QQYKRLPLS	0.98 1.51 1.30 1.34 1.79 1.03	0 of 18
MFSDEKYAYENQANSIA	EKTELVF	QDYHRLPFA	1.54 2.60 1.67 1.64 1.21 1.73	0 of 18
KLNDTFQQYERNNSSVA	DAIISEQ	QQYARLPLI	0.72 0.27 0.59 0.63 0.57 0.49	0 of 18

The closing 6 entries, repeated:

| CDR-L1 | CDR-L2 | CDR-L3 | replicates, log10 nM | control signals |
|---|---|---|---|---|
| NLSGHPYNNSQYKNSIA | EDNNIRL | QQYHRLPFT | 1.32 nd 0.58 nd nd nd | 0 of 18 |
| NVRLNEGEIAMHMYAIA | GVDLRAD | QQYSRLPLH | nd 0.78 nd 0.24 -0.01 2.07 | 0 of 18 |
| FMRMECYGYQNYGNSIA | HANIRHN | QQYSRLPFS | 2.22 2.17 1.94 1.99 1.78 2.47 | 0 of 18 |
| MLSQTVDYNYTAGNSVA | EVTERCN | QQYKRLPLS | 0.98 1.51 1.30 1.34 1.79 1.03 | 0 of 18 |
| MFSDEKYAYENQANSIA | EKTELVF | QDYHRLPFA | 1.54 2.60 1.67 1.64 1.21 1.73 | 0 of 18 |
| KLNDTFQQYERNNSSVA | DAIISEQ | QQYARLPLI | 0.72 0.27 0.59 0.63 0.57 0.49 | 0 of 18 |

The authors' rule: three or more of the six replicates give a measured affinity, fewer mean a poor binder.
The range of this assay differs from that of the first round, and the authors advise against merging the two.